This is a selection; strong and weak results do not stand in their true shares. Active and inactive are the calls of the source.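 The calls were made as follows: active = inhibition of 50% or more, scaled per plate between neutral and stimulator controls; inactive = the rest.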
Assay: mitochondrial permeability transition pore inhibitors, primary screen, biochemical, isolated mouse mitochondria, absorbance (AID 602449);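 also: 0% = DMSO wells given calcium and 100% = 1 mM EGTA wells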
Conditions: Ca2+ swelling absorbance, 30 min, at 10 µM, hits give high values
With `CCOC(=O)Nc1cccc([As](=O)(O)O)c1` the inhibition was inactive: -0.2%. For `O=P(Nc1ccccn1)(c1cccc2ccccc12)c1cccc2ccccc12`, the inhibition was inactive: -1.4%. In the case of `Cc1cc(SC(NC=O)C(Cl)(Cl)Cl)ncn1` (stereo unspecified), the inhibition is reported as inactive: -0.4%. In the case of `O=[N+]([O-])c1ccc(Nc2ccc(Oc3ccc([N+](=O)[O-])cc3[N+](=O)[O-])cc2)c([N+](=O)[O-])c1`, the inhibition is reported as inactive: 0.3%. In the case of `CCOC(=O)Nc1ccc([As](=O)(O)O)c(O)c1`, the inhibition is reported as inactive: 0.8%. In the case of `O=C(O)C(O)c1ccc(N(CCCl)CCCl)cc1` (stereo unspecified), the inhibition is reported as inactive: 0.2%. With `CC1CCNP(=O)(N(CCCl)CCCl)O1` (stereo unspecified) the inhibition was inactive: -1.7%. With `COP(=O)(OC)N1CC1c1ccccc1` (stereo unspecified) the inhibition was inactive: 0.6%. For `CCCCOc1ccc(C(=O)NCC2(N3CCCCC3)CCCCC2)cc1OC`, the inhibition was inactive: -0.9%. In the case of `Cc1cc(SC(NC(=O)c2ccccc2)C(Cl)(Cl)Cl)nc(C(C)C)n1` (stereo unspecified), the inhibition is reported as inactive: -0.2%. With `O=C(OC1CN2CCC1CC2)c1cccc([N+](=O)[O-])c1` (stereo unspecified) the inhibition was inactive: 0.5%. With `CSc1ccc(Nc2c([N+](=O)[O-])cc([N+](=O)[O-])cc2[N+](=O)[O-])cc1` the inhibition was active: 70.7%. With `CCOC(=O)c1ccc(NC(=O)C(C)(CCl)SC)cc1` (stereo unspecified) the inhibition was inactive: 1.7%. In the case of `CCC(C)N(CC(C)C)C(=S)SC(NC(C)=O)C(Cl)(Cl)Cl` (stereo unspecified), the inhibition is reported as inactive: 0.3%. In the case of `COP1(=S)c2c(C)nn(CCC#N)c2N=C(c2ccc(F)cc2)N1C` (stereo unspecified), the inhibition is reported as inactive: -0.5%. In the case of `COC(=O)C1(C)COP(=O)(N2CCCC2)OC1` (stereo unspecified), the inhibition is reported as inactive: 1.6%. With `O=C(O)C(=O)c1ccc(N(CCCl)CCCl)cc1` the inhibition was inactive: 0.1%. For `O=C(COc1ccccc1)OC1CN2CCC1CC2` (stereo unspecified), the inhibition was inactive: -0.1%. With `O=C(Nc1ccncc1[N+](=O)[O-])c1ccc([N+](=O)[O-])cc1[N+](=O)[O-]` the inhibition was inactive: 1%. With `O=[N+]([O-])c1cc(Oc2ccc([N+](=O)[O-])cc2C(F)(F)F)cc([N+](=O)[O-])c1` the inhibition was inactive: 2.3%. In the case of `COc1ccc(N/C(=N/P(=O)(N2CCOCC2)N2CCOCC2)N2CCOCC2)cc1`, the inhibition is reported as inactive: 0%. With `Cc1c2c(nc3ccccc13)SC(C(Cl)Cl)C2` (stereo unspecified) the inhibition was inactive: 2.7%. For `O=C(OC1CN2CCC1CC2)C12CC3CC(CC(C3)C1)C2` (stereo unspecified), the inhibition was inactive: 20.5%. With `Cc1cc(=O)[nH]c(N[N+](=O)[O-])n1` the inhibition was inactive: -0.2%. With `O=P1(N(CCCl)CCCl)OCCCN1CCCl` (stereo unspecified) the inhibition was inactive: -0.9%. With `O=P1(N(CCCl)CCCl)Nc2ccccc2N1` the inhibition was inactive: -0.1%. In the case of `COc1ccc2nc(NP(=O)(c3ccccc3)c3ccccc3)sc2c1`, the inhibition is reported as inactive: 0.2%. For `COc1cc(I)ccc1[As](=O)(O)O`, the inhibition was inactive: 0.6%. In the case of `ClCCSc1nnc(-c2cccnc2)o1`, the inhibition is reported as inactive: 0.4%. With `CC(C)c1ccc(OP(=O)(Nc2ccccn2)Oc2ccccc2F)cc1` (stereo unspecified) the inhibition was inactive: 14.9%. For `COC(=O)C1(C)COP(=O)(N2CCCCCC2)OC1` (stereo unspecified), the inhibition was inactive: -0.5%. For `CCN(CC)C(=S)SC(NC=O)C(Cl)(Cl)Cl` (stereo unspecified), the inhibition was inactive: -0.8%. In the case of `O=C(OC1CN2CCC1CC2)c1cccc2[nH]cnc12` (stereo unspecified), the inhibition is reported as inactive: -0.8%. With `CC(C)NC(=O)NP(=O)(Oc1ccccc1)Oc1ccccc1` the inhibition was inactive: -0.4%. With `O=[N+]([O-])c1cc([N+](=O)[O-])c(-c2ccn[nH]2)s1` the inhibition was inactive: 4.8%. In the case of `CC(C)NC[C@@H](O)COc1ccc(CC(N)=O)cc1`, the inhibition is reported as inactive: -0.7%. For `O=[As](O)(c1ccc(O)cc1)c1ccccc1O`, the inhibition was inactive: 1.5%. For `C[As](=O)(O)c1cccc(C(=O)O)c1`, the inhibition was inactive: -0.4%. In the case of `COc1cc(C(=O)NCC2(N3CCOCC3)CCCCC2)ccc1OCC(C)C`, the inhibition is reported as inactive: 1%. For `O=[N+]([O-])c1ccc(-c2cc([N+](=O)[O-])c(O)c([N+](=O)[O-])c2)cc1`, the inhibition was active: 78.1%. With `[N-]=[N+]=NC1CCCCC1NC(=O)c1cc([N+](=O)[O-])cc([N+](=O)[O-])c1` (stereo unspecified) the inhibition was inactive: -2%. With `Cc1ccc(OP(=O)(Nc2ccc([N+](=O)[O-])cn2)Oc2ccc(C)cc2)cc1` the inhibition was inactive: 3.1%. With `CC(Cc1ccc(O)cc1)NCC(O)c1cc(O)cc(O)c1` (stereo unspecified) the inhibition was inactive: -2%. With `Cc1ccc2nc3c(c(C)c2c1)CC(C(Cl)Cl)S3` (stereo unspecified) the inhibition was inactive: -0.2%. For `NC(=O)Nc1ccc([As](=O)(O)O)cc1`, the inhibition was inactive: -2.3%. In the case of `N#CCCN(C(=O)COC(=O)C(O)(c1ccccc1)c1ccccc1)c1ccc(F)cc1`, the inhibition is reported as inactive: -0.5%. In the case of `CCOP1(=S)c2c(C)nn(CCC#N)c2N=C(c2ccc(F)cc2)N1C` (stereo unspecified), the inhibition is reported as inactive: -0.3%. With `CN(C(=O)Cc1ccccc1)[C@@H]1CC[C@]2(CCCO2)C[C@H]1N1CCCC1` the inhibition was inactive: -1%. For `CN(C)C(=O)c1cc([N+](=O)[O-])cc2c1-c1c(cc([N+](=O)[O-])cc1[N+](=O)[O-])C2=O`, the inhibition was inactive: 3.9%. In the case of `O=[N+]([O-])c1ccc2c(c1)nnn2O`, the inhibition is reported as inactive: 0.4%. For `CN(C(=O)Cc1ccc(Cl)c(Cl)c1)[C@H]1CC[C@@]2(CCCO2)C[C@@H]1N1CCCC1`, the inhibition was inactive: -3.5%.
